Consider one substance from US20150185205A1.

Sequences of proteins named here, by UniProt entry; tags and fusion partners are left off.
UniProt P25103, whole entry: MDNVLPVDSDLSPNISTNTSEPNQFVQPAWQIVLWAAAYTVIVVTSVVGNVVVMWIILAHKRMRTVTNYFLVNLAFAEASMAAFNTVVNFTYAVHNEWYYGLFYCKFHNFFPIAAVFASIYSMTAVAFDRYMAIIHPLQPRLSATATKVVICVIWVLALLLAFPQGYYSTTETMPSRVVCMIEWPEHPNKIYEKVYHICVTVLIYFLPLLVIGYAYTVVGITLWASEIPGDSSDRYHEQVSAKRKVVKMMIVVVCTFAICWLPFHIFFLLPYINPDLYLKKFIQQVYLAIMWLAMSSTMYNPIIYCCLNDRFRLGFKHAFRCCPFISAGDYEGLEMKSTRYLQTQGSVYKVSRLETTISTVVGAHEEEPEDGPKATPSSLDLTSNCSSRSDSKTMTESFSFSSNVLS

The target of the assay is human Tachykinin receptor 1 (human) (UniProt P25103). Description: cell-based or functional assay.

On to “Substance P (from UniProt P20366 58-68) (peptide)”, for which the EC50, Fura-2/AM ratiometric fluorescent calcium assay was found to be 14 nM and the Ec50, biosensor fluorescence redistribution (increment of granularity), 6 h treatment was 9.5 pM.
